{"source": "paper PMC3209708", "about": "(Journal of medicinal chemistry, 2011)", "origin": "cited, not measured here", "system": "RT16 cells (FRα)", "conditions": "read-out: IC50 RT16 (+FA); cited from earlier work", "data": [{"smiles": "Nc1nc2[nH]c(CCCCc3ccc(C(=O)N[C@@H](CCC(=O)O)C(=O)O)s3)cc2c(=O)[nH]1", "note": "[Compound 4]", "values": [{"measurement": "IC50", "value": "> 1000", "unit": "nM"}]}]}
